Assay results: paper PMC8899614, “Triterpenoid Saponins From the Fruit of Acanthopanax senticosus (Rupr. & Maxim.) Harms” (Frontiers in Chemistry, 2022)

System: NO production in LPS-induced BV2 microglia
Experiment: NO production inhibition in LPS-induced BV2 microglia (Griess reaction)
Assay type: cell-based
Settings: LPS 1 μg/ml, n = 3, x ± s, IC50 > 100 μM deemed inactive, read-out: Inhibitory effects on NO in LPS-induced BV-2 cells, IC50
Description: The anti-neuroinflammatory effect of compounds 1–29 was evaluated by LPS-induced BV2 microglia reported previously ([Luo et al., 2020]). The BV2 microglia cells were plated into a 96-well plate. After adding LPS (1 μg/ml) to each well for 12 h, it was treated with or without compounds of various concentrations (0, 100, 200, 300, 400, and 600 μM) for 12 h. The NO production in the supernatant was measured by the Griess reaction. The absorbance at 570 nm was measured using a microplate reader. The NO concentration and the inhibitory rate were calculated through a calibration curve. Quercetin was used as the positive control. Experiments were repeated three times.
Unfortunately, the results of the evaluation were not ideal.

SMILES	IC50 [µM]
CC1(C)CCC2(C(=O)O)CCC3(C)C(=CCC4C5(C)CCC(OC6OCC(O)C(OC7OC(CO)C(O)C(O)C7O)C6O)C(C)(C)C5CCC43C)C2C1 [Compound 21, oleanolic acid 3-O-β-D-glucopyranosyl (1→3)-α-L-arabinopyranoside]	> 100
CC1OC(OC2C(OC3CCC4(C)C(CCC5(C)C4CC=C4C6CC(C)(C)CCC6(C(=O)OC6OC(CO)C(O)C(O)C6O)CCC45C)C3(C)C)OCC(O)C2O)C(O)C(O)C1O [Compound 26, oleanolic acid 3-O-α-L-rhamnopyranosyl(1→2)-α-L-arabinopyranosyl-28-O-β-D-glucopyranosyl ester]	> 100
